Experiment [1] has as its target T1, PDZ1-2 of PSD-95 (postsynaptic density protein-95) (UniProt P78352 61-249, limits assumed).
T1 construct: domain: PDZ1-2; also called PSD-95 PDZ1-2; PSD-95 PDZ12
In words: FP competition against fluorescent dimeric probe, Ki from IC50.

By UniProt entry, the sequences of proteins in these tests, tags left out. Residues count along the entry.
UniProt P78352, 61-249 limits assumed: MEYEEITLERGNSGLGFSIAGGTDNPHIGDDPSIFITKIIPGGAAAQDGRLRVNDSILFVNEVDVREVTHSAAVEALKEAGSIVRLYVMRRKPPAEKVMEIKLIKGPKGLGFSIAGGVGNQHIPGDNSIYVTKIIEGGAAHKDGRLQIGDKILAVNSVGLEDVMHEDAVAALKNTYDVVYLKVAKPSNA

For experiment [2], the target named is T1, PDZ1-2 of PSD-95 (postsynaptic density …). Described as above. The source holds these as a separate data set.

Read-outs that look alike come from different tables or passages of the source.

B1: compound 35, NPEG4-(IETDV)2 fused to L-Arg9 (Ac-RRRRRRRRR-) (peptide)
peptide: IETDV
chain: RRRRRRRRR
modifications: N-terminal acetyl (Ac); C-terminus linked to the nitrogen of the NPEG4 linker; N-terminus joined to the NPEG4 linker that bridges the two copies
notes: Branched compound CPP-NPEG4-(P1)(P2), formula (XXVIII); also called formula (XXIII)
Consider B1, for which the figures for the Ki in experiment [1] and in experiment [2] were 16 nM and 11 nM, respectively.

B2: compound 46, NPEG4-(IETDV)2 fused to L-Pen (Ac-RQIKIWFQNRRMKWKK-) (peptide)
peptide: IETDV
chain: RQIKIWFQNRRMKWKK
modifications: N-terminal acetyl (Ac); C-terminus linked to the nitrogen of the NPEG4 linker; N-terminus joined to the NPEG4 linker that bridges the two copies
notes: Branched compound CPP-NPEG4-(P1)(P2), formula (XXVIII)
On to B2, for which affinity in experiment [2] was put at a Ki of 11.3 nM.

One may read the Ki as the dissociation constant of the complex between target and ligand, obtained from inhibition or displacement. High values mean lower affinity, low ones higher affinity.

For the origin of these results see US20240245793A1 (UNIVERSITY OF COPENHAGEN, published 2024).
